Measurements published in ChEMBL document CHEMBL6121003, “Design, synthesis, and pharmacological evaluation of triazine-based PI3K/mTOR inhibitors for the potential treatment of non-small cell lung cancer” (Eur J Med Chem, 2025).

Protein sequences, listed by entry. Tags and fused reporters are not part of them. Lines headed by an entry give the natural chain unless they say otherwise; changes in a name come on top.
UniProt P06239: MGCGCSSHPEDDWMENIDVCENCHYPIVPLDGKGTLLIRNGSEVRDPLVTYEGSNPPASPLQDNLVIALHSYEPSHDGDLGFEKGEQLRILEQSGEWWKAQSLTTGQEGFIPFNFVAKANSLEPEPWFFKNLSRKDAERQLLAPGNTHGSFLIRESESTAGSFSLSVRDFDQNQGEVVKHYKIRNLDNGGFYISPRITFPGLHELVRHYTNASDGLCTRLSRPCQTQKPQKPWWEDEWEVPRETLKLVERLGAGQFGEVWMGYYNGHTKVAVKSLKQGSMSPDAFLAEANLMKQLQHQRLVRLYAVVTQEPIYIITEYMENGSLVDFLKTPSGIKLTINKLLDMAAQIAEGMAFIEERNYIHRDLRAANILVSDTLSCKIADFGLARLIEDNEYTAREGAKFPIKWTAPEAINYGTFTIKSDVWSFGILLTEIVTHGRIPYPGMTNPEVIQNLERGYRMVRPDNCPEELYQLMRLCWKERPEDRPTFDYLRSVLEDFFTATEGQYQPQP
UniProt Q05397, whole entry, looked up: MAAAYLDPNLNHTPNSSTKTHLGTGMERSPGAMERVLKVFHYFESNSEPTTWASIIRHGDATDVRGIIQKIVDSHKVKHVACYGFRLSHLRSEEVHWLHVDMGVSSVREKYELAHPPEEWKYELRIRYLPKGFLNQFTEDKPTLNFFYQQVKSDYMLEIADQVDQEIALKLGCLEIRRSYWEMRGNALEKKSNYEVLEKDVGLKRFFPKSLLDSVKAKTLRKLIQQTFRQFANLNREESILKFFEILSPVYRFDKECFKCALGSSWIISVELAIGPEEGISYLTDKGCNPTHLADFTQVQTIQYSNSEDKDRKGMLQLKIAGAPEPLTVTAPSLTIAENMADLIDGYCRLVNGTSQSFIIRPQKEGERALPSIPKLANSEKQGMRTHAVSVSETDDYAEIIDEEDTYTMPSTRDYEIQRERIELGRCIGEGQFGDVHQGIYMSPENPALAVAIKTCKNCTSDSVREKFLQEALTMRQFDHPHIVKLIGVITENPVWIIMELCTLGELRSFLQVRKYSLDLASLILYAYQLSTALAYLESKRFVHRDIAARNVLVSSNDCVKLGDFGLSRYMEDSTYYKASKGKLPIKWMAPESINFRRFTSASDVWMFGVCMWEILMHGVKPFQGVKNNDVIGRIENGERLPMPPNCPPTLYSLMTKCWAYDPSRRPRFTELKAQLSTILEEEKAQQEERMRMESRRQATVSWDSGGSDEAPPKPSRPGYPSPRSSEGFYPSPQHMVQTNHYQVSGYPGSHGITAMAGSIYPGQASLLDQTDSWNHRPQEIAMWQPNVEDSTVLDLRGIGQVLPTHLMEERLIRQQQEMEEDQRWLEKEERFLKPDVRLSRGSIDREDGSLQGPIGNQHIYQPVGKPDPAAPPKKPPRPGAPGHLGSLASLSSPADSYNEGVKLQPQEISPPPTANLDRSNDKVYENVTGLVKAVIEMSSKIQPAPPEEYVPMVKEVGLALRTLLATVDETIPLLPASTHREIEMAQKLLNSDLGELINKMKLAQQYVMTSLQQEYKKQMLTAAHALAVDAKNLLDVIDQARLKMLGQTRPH
UniProt Q9UM73: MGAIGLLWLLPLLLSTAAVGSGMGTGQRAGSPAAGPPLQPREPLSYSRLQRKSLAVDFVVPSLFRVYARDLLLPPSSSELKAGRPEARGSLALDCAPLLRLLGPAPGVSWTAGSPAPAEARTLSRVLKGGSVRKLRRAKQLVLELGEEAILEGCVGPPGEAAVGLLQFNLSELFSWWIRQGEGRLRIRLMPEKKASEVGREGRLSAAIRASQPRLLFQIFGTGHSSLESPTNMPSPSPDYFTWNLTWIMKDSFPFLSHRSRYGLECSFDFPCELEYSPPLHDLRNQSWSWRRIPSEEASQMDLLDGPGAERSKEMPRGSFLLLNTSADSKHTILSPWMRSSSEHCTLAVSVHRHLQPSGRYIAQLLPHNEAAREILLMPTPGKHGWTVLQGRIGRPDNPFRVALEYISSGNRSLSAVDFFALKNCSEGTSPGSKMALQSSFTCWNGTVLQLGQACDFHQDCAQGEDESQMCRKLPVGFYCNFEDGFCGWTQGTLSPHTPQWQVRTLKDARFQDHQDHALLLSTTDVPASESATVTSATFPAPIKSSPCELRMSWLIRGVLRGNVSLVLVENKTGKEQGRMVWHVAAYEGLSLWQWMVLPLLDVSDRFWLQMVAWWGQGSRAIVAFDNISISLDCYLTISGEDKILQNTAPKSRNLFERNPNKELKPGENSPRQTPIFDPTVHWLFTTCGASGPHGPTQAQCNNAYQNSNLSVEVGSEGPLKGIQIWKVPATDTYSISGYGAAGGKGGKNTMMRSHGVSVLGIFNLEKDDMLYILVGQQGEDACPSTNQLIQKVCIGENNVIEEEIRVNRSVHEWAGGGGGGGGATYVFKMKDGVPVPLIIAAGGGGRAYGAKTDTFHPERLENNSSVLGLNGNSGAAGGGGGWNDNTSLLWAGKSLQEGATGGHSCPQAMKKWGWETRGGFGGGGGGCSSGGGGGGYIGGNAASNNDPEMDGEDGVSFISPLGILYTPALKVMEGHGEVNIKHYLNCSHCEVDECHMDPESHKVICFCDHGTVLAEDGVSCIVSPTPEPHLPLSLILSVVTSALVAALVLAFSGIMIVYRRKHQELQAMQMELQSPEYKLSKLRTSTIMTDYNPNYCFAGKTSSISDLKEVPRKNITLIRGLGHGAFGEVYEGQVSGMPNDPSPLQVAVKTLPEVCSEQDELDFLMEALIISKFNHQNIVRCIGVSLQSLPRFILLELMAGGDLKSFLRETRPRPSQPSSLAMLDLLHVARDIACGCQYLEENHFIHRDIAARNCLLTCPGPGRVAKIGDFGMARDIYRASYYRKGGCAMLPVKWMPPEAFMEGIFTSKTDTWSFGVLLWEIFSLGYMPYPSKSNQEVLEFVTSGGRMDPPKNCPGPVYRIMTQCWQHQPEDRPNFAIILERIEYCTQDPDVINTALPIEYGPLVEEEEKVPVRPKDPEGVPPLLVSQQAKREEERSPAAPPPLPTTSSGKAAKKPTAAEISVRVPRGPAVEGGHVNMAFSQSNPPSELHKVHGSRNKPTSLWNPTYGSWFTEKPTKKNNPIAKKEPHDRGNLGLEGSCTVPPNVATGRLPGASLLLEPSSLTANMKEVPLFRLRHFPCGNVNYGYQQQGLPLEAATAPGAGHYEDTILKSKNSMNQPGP
UniProt Q96GD4, whole entry: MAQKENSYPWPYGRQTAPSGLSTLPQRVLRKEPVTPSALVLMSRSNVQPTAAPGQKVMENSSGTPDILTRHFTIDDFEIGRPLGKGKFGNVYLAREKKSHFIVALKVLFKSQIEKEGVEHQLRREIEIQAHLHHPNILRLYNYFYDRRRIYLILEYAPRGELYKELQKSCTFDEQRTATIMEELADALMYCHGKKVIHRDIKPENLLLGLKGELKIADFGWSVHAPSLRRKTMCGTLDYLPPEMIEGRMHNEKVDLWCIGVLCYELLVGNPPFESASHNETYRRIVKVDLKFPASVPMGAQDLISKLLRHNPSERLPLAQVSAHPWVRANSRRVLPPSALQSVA
UniProt Q06187: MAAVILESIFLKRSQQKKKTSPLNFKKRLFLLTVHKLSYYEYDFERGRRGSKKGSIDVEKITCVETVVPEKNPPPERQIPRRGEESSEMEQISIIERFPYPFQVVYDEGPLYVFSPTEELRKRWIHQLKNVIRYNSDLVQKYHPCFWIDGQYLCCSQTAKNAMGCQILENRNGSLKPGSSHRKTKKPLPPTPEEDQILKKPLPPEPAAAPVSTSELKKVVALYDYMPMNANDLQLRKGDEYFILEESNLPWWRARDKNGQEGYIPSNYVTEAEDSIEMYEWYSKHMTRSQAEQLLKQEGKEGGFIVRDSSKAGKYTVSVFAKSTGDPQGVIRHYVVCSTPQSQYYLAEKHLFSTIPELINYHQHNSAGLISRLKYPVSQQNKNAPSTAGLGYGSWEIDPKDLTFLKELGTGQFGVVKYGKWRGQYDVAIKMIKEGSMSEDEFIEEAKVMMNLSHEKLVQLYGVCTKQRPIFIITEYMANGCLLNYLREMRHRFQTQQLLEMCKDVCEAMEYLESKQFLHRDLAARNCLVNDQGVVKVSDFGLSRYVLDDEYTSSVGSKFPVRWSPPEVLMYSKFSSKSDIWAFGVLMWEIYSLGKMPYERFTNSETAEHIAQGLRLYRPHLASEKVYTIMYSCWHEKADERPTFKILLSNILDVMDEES

Assays:
[1] = molecular target: Tyrosine-protein kinase Lck (Homo sapiens) (UniProt P06239); conditions: dose 250.0 nM
[2] = molecular target: Focal adhesion kinase 1 (Homo sapiens) (UniProt Q05397); conditions: dose 250.0 nM
[3] = molecular target: T1, Aurora kinase A (Homo sapiens) (UniProt O14965); conditions: dose 250.0 nM
T1 sequence (whole entry): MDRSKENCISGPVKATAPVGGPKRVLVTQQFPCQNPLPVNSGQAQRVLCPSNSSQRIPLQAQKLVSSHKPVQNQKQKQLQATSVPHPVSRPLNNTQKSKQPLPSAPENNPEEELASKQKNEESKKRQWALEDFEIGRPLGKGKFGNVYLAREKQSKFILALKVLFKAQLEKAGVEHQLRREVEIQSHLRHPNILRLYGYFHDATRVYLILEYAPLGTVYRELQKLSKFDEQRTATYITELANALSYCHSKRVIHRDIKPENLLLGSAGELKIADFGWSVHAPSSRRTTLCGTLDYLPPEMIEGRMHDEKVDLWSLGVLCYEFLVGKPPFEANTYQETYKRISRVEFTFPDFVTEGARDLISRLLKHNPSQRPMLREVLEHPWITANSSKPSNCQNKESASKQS

[4] = molecular target: ALK tyrosine kinase receptor (Homo sapiens) (UniProt Q9UM73); conditions: dose 250.0 nM
[5] = molecular target: Aurora kinase B (Homo sapiens) (UniProt Q96GD4); conditions: dose 250.0 nM
[6] = molecular target: Tyrosine-protein kinase BTK (Homo sapiens) (UniProt Q06187); conditions: dose 250.0 nM
[7] = molecular target: Epidermal growth factor receptor (Homo sapiens) (UniProt P00533); conditions: HCC827, dose 8.0 nM, time 24.0 hrs

inhibition [1]: > 80% | inhibition [2]: > 80% | inhibition [3]: > 80% | inhibition [4]: > 80% | inhibition [5]: > 80% | inhibition [6]: > 80% | inhibition [7]: inactive
SMILES: O=C(Nc1ccc(C(=O)N2CCC[C@H]2CO)cc1)Nc1ccc(-c2nc(N3CCOCC3)nc(N3CCOCC3)n2)cc1

The source made the active and inactive calls. The rule behind the calls is not given here.
